Results reported in ChEMBL document CHEMBL1201862, “PubChem BioAssay data set” (2004).
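Five compound concentrations were applied to cells in 96-well plates for 48 hours; endpoints were derived by simple linear interpolation of the resulting dose-response curve. GI50 is the concentration that inhibits growth by half.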 The source made the active and inactive calls. No stated cut-off is given here; in the data, active = GI50 up to about 1.1 µM and inactive = higher.

Tested on: NCI-H23
Assay: NCI tumour cell line growth inhibition, 48 h

In the case of `CC1C(=O)C(C)C(c2ccccc2)N(C)C1c1ccccc1` (stereo unspecified), the GI50 is reported as inactive: 70.1 µM.
